Results taken from patent EP1144011B1, “PRODRUG COMPOUNDS AND PROCESS FOR PREPARATION THEREOF” (Coulter Pharmaceutical, Inc., priority 1998, dated 2000).

Experiments:
[1] = Acute toxicity after intravenous injection in mice; type: in vivo; conditions: 174 µMol /ml
Protocol: Many cytotoxic compounds inherently have low solubility. Positively charged anthracyclines for example form aggregates at high concentration and these aggregates induce intravenous coagulation when the aggregates are administered intravenously. We have discovered that trouase recognizes a specific set of hydrophobic peptide sequences. […] Since most peptides have exposed, positively-charged amino termini at physiological pH, these aggregates form a polypositively charged surface in vivo. […] This renders any positively charged prodrugs that are formulated with aggregate suspension unsuitable for therapeutic use.
Several experiments support the hypothesis that aggregates are formed with peptide conjugated Doxorubicins. […] A solution to this aggregate problem makes these peptide prodrugs more practical. When these peptide prodrugs form aggregates because of insufficient solubility at the desired formulated concentrations, the stabilizing group on the peptide chain must terminate in a negatively charged or a neutral functionality. The use of succinyl as a stabilizing group on the peptide prodrug renders the produg not acutely toxic (see example 6). This solves an important problem in the use of peptide prodrugs as practical therapies for humans. […]

[2] = Aggregation: filtration through Centricon filter units of different MWCO; type: physicochemical; conditions: for 3000 MWCO Filt.: quantitated at λ475 nm
[3] = 17.4 µMol/ml in distilled water, 2 hr at 1500g, passing through filter
[4] = 17.4 µMol/ml in distilled water, 2 hr at 1500g, retained

COc1cccc2c1C(=O)c1c(O)c3c(c(O)c1C2=O)C[C@@](O)(C(=O)CO)C[C@@H]3O[C@H]1C[C@H](NC(=O)[C@H](CC(C)C)NC(=O)[C@H](C)NC(=O)[C@H](CC(C)C)NC(=O)CCN)[C@H](O)[C@H](C)O1 [βAlaLeuAlaLeu-Dox, N-β-Ala-L-Leu-L-Ala-L-Leu-Doxorubicin]
Survival time ([1]; 1 hr pretreatment heparin i.p. 4000 I.U.): >9 days | Survival time ([1]; Control (iv), heparin 0 I.U.): 0 days | aggregate size (a significant percentage of aggregates) ([2]; 17.4 µMol/ml aqueous solution): > 50 kD | 3000 MWCO Filt. [2, 3]: 5% | 3000 MWCO Filt. ([2]; 17.4 µMol/ml in distilled water, 2 hr at 1500g, passing through filter, listed as Conj.): 4.9% | 10000 MWCO Filt. [2, 3]: 10% | 30000 MWCO Filt. [2, 3]: 36% | 50000 MWCO Filt. [2, 3]: 53% | 3000 MWCO Ret. [2, 4]: 89% | 10000 MWCO Ret. [2, 4]: 76% | 30000 MWCO Ret. [2, 4]: 64% | 50000 MWCO Ret. [2, 4]: over 40% | 50000 MWCO Ret. ([2]; 17.4 µMol/ml in distilled water, 2 hr at 1500g, retained, listed as Conj.): 43%
